These results are taken from paper PMC5844868, “Increased intracellular activity of MP1102 and NZ2114 against Staphylococcus aureus in vitro and in vivo” (Scientific Reports, 2018).

For assay [1], the system named is MRSA. The following applies: against MRSA; cited from earlier work. From the text:
(§1) This study is the first evaluation of the intracellular anti-staphylococcal properties of the NZ2114 derivative MP1102 using both in vitro and in vivo methods. […] As a corresponding in vivo mouse model, RAW 264.7 macrophages were chosen to evaluate in vitro intracellular activity in this study.

The test system of assay [2] is S. aureus in THP-1 cells. The following applies: against MRSA in THP-1 cells; cited from earlier work.
Excerpt: as §1

The test system of assay [3] is IL-1β. As to the kind of experiment: Cytokine ELISA in S. aureus-infected RAW 264.7 cells. The following applies: 25 μg/ml, 24 h after infection with MRSA ATCC43300; range over treatments. Format: cell-based, mouse. The method, then:
To investigate the effects of MP1102 and NZ2114 on cytokine levels in cells infected with S. aureus, RAW264.7 cells (2.5 × 10^5 cells/ml) seeded into 12-well plates were incubated with MRSA ATCC43300 (MOI = 100:1) for 30 min followed by treatment with 50 μg/ml lysostaphin for 1 h to remove non-phagocytosed bacteria. The cells were then treated with 25 μg/ml MP1102, NZ2114 and vancomycin for 12 h and 24 h. Cell-free culture supernatants were collected and the concentrations of cytokines (TNF-α, IL-1β and IL-10) were determined by Jiaxuan Biotech. Co. Ltd. (Beijing, China) using an ELISA kit[58],[59].

Assay [4] relates to MSSA ATCC25923. In words: Mouse peritonitis model. In kind it is in vivo. The following applies: 20 mg/kg and 10 mg/kg dose, data not shown. On the procedure: The mice were infected by peritoneal injection with different S. aureus strains, including MSSA ATCC25923 (5 × 10^8 CFU), MRSA ATCC43300 (5 × 10^8 CFU) and high virulent CVCC546 (5 × 10^7 CFU), and treated with a single dose of drugs ([…], 20, 30 and 40 mg/kg for ATCC43300 and CVCC546) at 10 min after infection. Twenty-four hours after treatment, the mice were killed and peritoneal fluids were obtained by washing with 5 ml ice-cold PBS. The total number of bacteria in the fluids was determined before any further procedures and then divided into two equal fractions of 1.5 ml each for the following purposes: i) for extracellular bacteria quantification, one fraction was centrifuged for 10 min at 4 °C (300 g) and the supernatant CFU count was quantified and ii) for intracellular bacteria quantification, the other fraction was centrifuged for 5 min at 4 °C (1,000 rpm). The cells were collected and treated with 100 μg/ml gentamicin (MSSA ATCC25923) or 50 μg/ml lysostaphin (MRSA ATCC43300 and high virulent CVCC546) for 1 h at 37 °C to kill extracellular bacteria. The cells were washed twice with ice-cold PBS to remove any anti-extracellular bacterial drug. Subsequently, the cells were lysed and counted as described above for the in vitro experiment method[14],[54].

As to `CC[C@H](C)[C@@H]1NC(=O)[C@H](CO)NC(=O)[C@H](CCCCN)NC(=O)[C@@H]2CSSC[C@@H](C(=O)N[C@@H](Cc3ccc(O)cc3)C(=O)O)NC(=O)[C@H](CCCCN)NC(=O)[C@@H]3CSSC[C@H](NC(=O)[C@H](CCCNC(=N)N)NC(=O)[C@H](CC(C)C)NC(=O)[C@H](CC(=O)O)NC(=O)[C@H](CC(=O)O)NC(=O)[C@H](CCC(=O)O)NC(=O)[C@H](CC(N)=O)NC(=O)[C@H](Cc4c[nH]c5ccccc45)NC(=O)[C@@H]4CCCN4C(=O)CNC(=O)[C@H](CC(N)=O)NC(=O)[C@@H](NC(=O)CNC(=O)[C@H](Cc4ccccc4)NC(=O)CN)CSSC[C@H](NC(=O)[C@H](Cc4ccc(O)cc4)NC(=O)CNC(=O)CNC(=O)[C@H](CCCCN)NC(=O)[C@H](Cc4ccc(O)cc4)NC(=O)CNC(=O)[C@H](CCCCN)NC1=O)C(=O)N[C@@H](C)C(=O)N[C@@H](CCCCN)C(=O)NCC(=O)NCC(=O)N[C@@H](Cc1ccccc1)C(=O)N[C@@H](C(C)C)C(=O)N3)C(=O)N[C@@H](Cc1c[nH]cn1)C(=O)N[C@@H](CC(N)=O)C(=O)N[C@@H](Cc1c[nH]cn1)C(=O)N2` [NZ2114], the “relative Emax, extracellular” value in assay [1] was 4.58 log CFU. Besides, the “relative Emax, intracellular” value in assay [2] is listed as 0.93 log CFU. For the same compound, the “suppressed production of IL-1β” value in assay [3] was 18.7 to 49.5 pg/mL. Also, the “colonies on the plates” value in assay [4] was “no colonies were observed”.
